Results published in patent US20240165110A1.

Amino acid sequences for entries named in this document (tags omitted).
UniProt P41145, whole entry: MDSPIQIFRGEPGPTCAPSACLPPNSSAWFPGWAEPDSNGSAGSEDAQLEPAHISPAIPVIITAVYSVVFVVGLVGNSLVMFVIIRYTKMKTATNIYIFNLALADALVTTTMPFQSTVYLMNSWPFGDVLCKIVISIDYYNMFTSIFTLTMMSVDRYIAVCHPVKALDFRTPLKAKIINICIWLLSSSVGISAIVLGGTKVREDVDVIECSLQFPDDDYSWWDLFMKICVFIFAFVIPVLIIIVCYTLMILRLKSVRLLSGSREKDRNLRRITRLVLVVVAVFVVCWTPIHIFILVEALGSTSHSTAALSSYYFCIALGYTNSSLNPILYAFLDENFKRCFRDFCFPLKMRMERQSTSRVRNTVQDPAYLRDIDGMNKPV

Target: kappa opioid receptor (KOR) (Homo sapiens, UniProt P41145)
Assay: KOR inhibition (inhibitor constant Ki and % inhibition)

| SMILES | Ki [nM] |
| --- | --- |
| COC(=O)C(Cc1cccc(OC)c1C)NC(=O)CNCc1ccccc1 (centres unmarked) | 192 |
| COC(=O)C(Cc1cccc(C)c1I)NC(=O)CNCc1ccccc1 (centres unmarked) | 122 |
